The numbers were not newly measured in patent US9492398B2, “Nanocapsulation of essential oils for preventing or curing infectious diseases alone or with an antibiotic” (Eydo Pharma, priority 2011, dated 2016), which cites them from elsewhere.

The conditions of this data set: from the literature; cited from earlier work.

With `CC1(C)S[C@@H]2[C@H](NC(=O)[C@H](N)c3ccc(O)cc3)C(=O)N2[C@H]1C(=O)O` [Amoxicillin], the “LD50 in mice by intraperitoneal injection” value is listed as 3590 mg/kg.
